# Reference: PubChem BioAssay AID1438 (Sanford-Burnham Center for Chemical Genomics, 2008)
# Amino acid sequences for entries named in this document (tags omitted).
# UniProt Q01196, whole entry, looked up: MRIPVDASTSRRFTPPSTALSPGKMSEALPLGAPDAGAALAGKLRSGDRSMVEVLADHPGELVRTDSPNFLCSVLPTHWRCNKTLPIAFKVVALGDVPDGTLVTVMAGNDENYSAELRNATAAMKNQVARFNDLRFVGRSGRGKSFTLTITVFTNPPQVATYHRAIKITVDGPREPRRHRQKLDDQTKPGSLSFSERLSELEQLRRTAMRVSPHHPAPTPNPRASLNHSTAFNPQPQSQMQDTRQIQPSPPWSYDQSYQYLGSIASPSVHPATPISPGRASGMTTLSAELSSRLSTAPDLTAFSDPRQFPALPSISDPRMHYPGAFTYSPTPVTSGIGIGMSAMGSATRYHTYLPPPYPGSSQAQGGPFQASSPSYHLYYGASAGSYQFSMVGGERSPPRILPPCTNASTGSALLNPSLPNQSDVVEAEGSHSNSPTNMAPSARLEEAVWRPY
# UniProt Q13951, whole entry, looked up: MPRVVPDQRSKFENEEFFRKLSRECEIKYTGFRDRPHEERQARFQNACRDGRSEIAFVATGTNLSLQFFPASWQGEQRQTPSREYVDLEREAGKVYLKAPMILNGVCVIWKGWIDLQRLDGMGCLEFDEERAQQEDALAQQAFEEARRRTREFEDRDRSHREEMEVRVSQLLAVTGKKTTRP
# Only a part is listed here, and it is no random draw. Results with a measured potency or affinity are listed apart. Activity calls are given as the source filed them. How the calls were made is not given here.
# Molecular target: Runt-related transcription factor 1 (Homo sapiens) + Core-binding factor subunit beta (Homo sapiens) (UniProt Q01196+Q13951)
# Test: Runt domain/CBFb-SMMHC interaction disruptors – biochemical, TR-FRET (AID 1438)
# Conditions: at 20 µM, stronger effect = higher value
row,SMILES,inhibition
1,O=P(Nc1nccs1)(c1ccccc1)c1nc2ccccc2s1 (stereo unspecified),inactive: -3.3%
